For one assay, the system named is Citrobacter freundii. Kind of assay: Inhibition of NDM1 in Citrobacter freundii clinical isolate 7 assessed as potentiation of meropenem-induced antibacterial activity by measuring meropenem MIC after 24 hrs by broth microdilution assay. (In general: Dilution methods test growth across graded concentrations, often in twofold steps.)
Another assay concerns Escherichia coli. Kind of assay: Inhibition of NDM1 in Escherichia coli isolate 9 assessed as potentiation of meropenem-induced antibacterial activity by measuring meropenem MIC after 24 hrs by broth microdilution assay.

1 compound from ChEMBL document CHEMBL4387701, “H2depda: An acyclic adjuvant potentiates meropenem activity in vitro against metallo-β-lactamase-producing enterobacterales” (Eur J Med Chem, 2019) can be followed below.

As to `O=C(O)CN1CCN(CC(=O)O)CCN(CC(=O)O)CC1`, the MIC in the assay with Citrobacter freundii and in the assay on Escherichia coli was 0.5 µg/mL each time.
